Assay results as given in PubChem BioAssay AID485 (The Scripps Research Institute Molecular Screening Center, 2006).
The entries are a selection whose mix differs from that of the whole data set. Activity calls are given as the source filed them.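 How the source made its calls: active means inhibition above the plate cutoff, the mean inhibition of test wells on that plate plus 3 SD (cut at about 28% in these data); inactive means the rest.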

Protein sequences, listed by entry. Tags and fused reporters are not part of them.
UniProt Q99500, whole entry: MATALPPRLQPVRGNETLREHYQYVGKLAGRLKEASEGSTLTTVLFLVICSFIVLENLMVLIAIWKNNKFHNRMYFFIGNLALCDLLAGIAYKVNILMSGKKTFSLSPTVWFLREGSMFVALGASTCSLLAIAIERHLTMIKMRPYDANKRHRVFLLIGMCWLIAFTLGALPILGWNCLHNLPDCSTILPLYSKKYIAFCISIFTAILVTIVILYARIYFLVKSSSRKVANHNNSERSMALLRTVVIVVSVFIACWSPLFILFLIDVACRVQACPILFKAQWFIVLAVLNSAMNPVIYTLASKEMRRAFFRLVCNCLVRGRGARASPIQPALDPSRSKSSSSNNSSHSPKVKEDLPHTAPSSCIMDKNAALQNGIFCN

target: Sphingosine 1-phosphate receptor 3 (Homo sapiens) (UniProt Q99500); experiment: inhibition of S1P-stimulated S1P3 activation – cell-based, primary screen (AID 485); conditions: CHO S1P3 NFAT-BLA reporter, FRET fluorescence, antagonist mode; at 4.98 µM; stronger effect = higher value;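 further: cells challenged with S1P at its EC80 of 0.8 µM; blue over green emission ratio from cleaved BLA substrate after 4 h stimulation; 0% = S1P-stimulated wells and 100% = unstimulated DMSO-only wells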

Compound	inhibition
O=[As](O)(c1ccccc1Br)c1ccccc1Br	inactive: -16.1%
